Measured values taken from US20240207141A1, “PEPTIDE HAVING REPARATIVE DENTIN-REGENERATING ACTIVITY AND USE THEREOF” (SEOUL NATIONAL UNIVERSITY R&DB FOUNDATION, priority 2022, published 2024).

Tested on: rat pulp exposure model
Experiment: Rat tooth pulp exposure model, histologic analysis (H&E) of inflammatory response and hard tissue formation
Assay type: in vivo
Source text: Seven-week-old male Sprague-Dawley rats were purchased from the OrientBio after approval from the Institutional Animal Care and Use Committee of Seoul National University (No. SNU-180109-2) was obtained. The rats were used after 1-week acclimation under standard animal housing conditions (12-h light and 12-h dark cycles with free access to food and water) and randomly divided into the following six groups for the pulp-capping procedure: self-adhesive resin cement (Resin) group, ProRoot MTA (MTA) group, vehicle (Veh) group, rhBMP-2 group, SP group, and VnP-16 group. The Resin group and Veh group were used as negative controls and the MTA group and rhBMP-2 group were used as positive controls. Resin cement (Rely X U-200, 3M ESPE, MN, USA) was used as the final restoration in all experimental groups.
Specifically, the rats were anesthetized by the intraperitoneal injection of 31.25 mg/kg tiletamine/zolazepam and 8.75 mg/kg xylazine. After ascertaining the general anesthesia, the oral cavity was opened with a customized wire to expose the lower first molars. After cleaning and sanitizing with both 3% H2O2 and a 10% Betadine-soaked cotton, the center of the occlusal surface was carefully punctured using a #¼ round bur (0.5 mm in diameter) with a high-speed hand piece. MTA (ProRoot MTA, Dentsply Sirona, York, PA, USA) was mixed according to the manufacturer's instruction and the mixture was applied to the exposed pulp. Absorbable collagen sponges (BiolandKorea, Cheonan, Korea) were loaded with vehicle (10 μL of DMSO and 5 μL of DDW) (vehicle (Vhe) group), rhBMP-2 (2 μg per scaffold, 15 μL volume; Pepro-Tech, Rocky Hill, NJ, USA) (rhBMP-2 group), or synthetic peptides SP or VnP-16 (2 mg per scaffold, 15 μL volume) (SP and VnP-16 groups), respectively, and then applied to the exposed pulp. The punctured sites were covered with resin cement after the application of MTA or the collagen sponge. In the Resin group, resin cement was directly applied to the punctured site. The sharp cusp tips of the upper molar and lower first molar were grinded using a football shaped diamond bur in order to prevent tooth fractures by mastication.
Rats were histologically analyzed 2 and 4 weeks after pulp exposure surgery. Whole mandibles were fixed f in 4% paraformaldehyde at 4° ° C. for 24 hours. For histological staining, the specimens were decalcified with 12% EDTA for 4 weeks and embedded in paraffin. […] Each sample was evaluated and scored for inflammatory response and hard tissue formation according to the criteria presented in [Table 2] below. In this study, reparative dentin formed under the pulp-exposed site, which is distinguished from dentin regenerated under the existing dentin, was evaluated.

[1] = 2 weeks after pulp exposure surgery, grade per Table 2

rhBMP-2: rhBMP-2 from Pepro-Tech loaded on collagen sponge; positive control
newly formed mineralized tissues at the pulp-exposed sites (2 weeks after pulp exposure surgery): hardly detected | number of specimens with a moderate inflammatory response [1]: 3 out of 6 | share of specimens with a moderate inflammatory response [1]: 50% | reparative dentin formation score (4 weeks after pulp exposure surgery): moderate and heavy
